# The entries are a selection whose mix differs from that of the whole data set. Inconclusive results are not listed. Some salts or complexes appear as unconnected parts, following the source record. Calls of active or inactive are those of the source. The call rests on the fitted dose curve; in most records, active means well fitted inhibition curve with a large enough effect; inconclusive means small, poorly fitted or top-dose-only effect, or effect the other way; inactive means flat fitted curve, though single readings scatter.
# Amino acid sequences for entries named in this document (tags omitted). Residues count along the entry.
# UniProt P10636, 561-689 P618L limits assumed: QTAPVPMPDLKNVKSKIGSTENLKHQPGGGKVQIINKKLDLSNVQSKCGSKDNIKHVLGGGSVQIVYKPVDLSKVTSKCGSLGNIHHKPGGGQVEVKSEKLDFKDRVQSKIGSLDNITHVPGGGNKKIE
# Target: Microtubule-associated protein tau (Homo sapiens) (UniProt P10636)
# Test: qHTS for Inhibitors of Tau Fibril Formation, Fluorescence Polarization; further: nearly all actives have a fitted effect of over 55% in size
# Conditions: K18 P301L tau heparin fibrillization, Alexa594 FP, 6 h; at 57.7 µM (top of the series)
# Excerpt: NIH Molecular Libraries Probe Production Network [MLPCN]
# NIH Chemical Genomics Center [NCGC]
# Assay Provider: Carlo Ballatore, University of Pennsylvania
# The microtubule-associated protein tau is an abundant protein in the axons of neurons that stabilizes microtubules. With its ability to modulate microtubule dynamics, tau contributes directly or indirectly, to key structural and regulatory cellular functions. Particularly important is the influence tau exerts on axonal transport, which allows signaling molecules, trophic factors and other essential cellular constituents to travel along the axons. Under pathological conditions, tau becomes sequestered into insoluble aggregates called neurofibrillary tangles. This phenomenon is believed to have pathological consequences by promoting axonal transport deficits that ultimately lead to synaptic dysfunction and neuronal loss. To identify inhibitors of tau aggregation, a heparin-induced tau fibril formation assay was used that employed a recombinantly expressed fragment of tau, K18 (Q242-E372), bearing a P301L mutation (Gustke et al. 1994; Hong et al. 1998).
# Gustke, N., B. Trinczek, et al. (1994). "Domains of tau protein and interactions with microtubules." Biochemistry 33(32): 9511-22.
# Hong, M., V. Zhukareva, et al. (1998).
# Li, W. and V. M. Lee (2006). "Characterization of two VQIXXK motifs for tau fibrillization in vitro." Biochemistry 45(51): 15692-701.
# von Bergen, M., S. Barghorn, et al. (2001). "Mutations of tau protein in frontotemporal dementia promote aggregation of paired helical filaments by enhancing local beta-structure." J Biol Chem 276(51): 48165-74.
# NCGC Assay Protocol Summary:
# For screening, 2 uL/well human K18 P301L (15 uM unlabeled and 0.24 uM Alexa 594-labeled tau final concentrations) in reagent buffer (100 mM sodium acetate pH 7) was dispensed into black solid 1536-well plates (Grenier) using a solenoid-based dispenser. Following transfer of 23 nL compound or DMSO vehicle by a pin tool, 2 uL/well heparin (20 uM final concentration) in reagent buffer was added and the plate centrifuged 15 s at 1000 RPM. Plates were incubated 6 hr at 37 C and then 1 uL/well ThT (30 uM final concentration) was added. After a 1 hr ambient incubation, the plates were read by an Envision (Perkin Elmer) to monitor Alexa 594 FP (555 nm excitation and 632 nm emission).
# Keywords: NIH Roadmap, MLPCN, MLI, MLSMR, NCGC, qHTS, tau, tauopathies, Alzheimer's disease, fibril, neurodegeneration, aggregation
# On the % scale 0 is the no-effect control and ±100 the full control effect.
row,Compound,"activity, negative = inhibition"
1,COc1ccc(NC2CCN(CCc3ccccc3)CC2)c(OC)c1,inactive: -7.3%
2,COc1ccccc1C(=O)NCC1(N2CCOCC2)CCCCC1,inactive: -1.27%
3,O=C(NCC1(N2CCOCC2)CCCCC1)c1ccc(Cl)cc1,inactive: 3.57%
4,Cc1ccc(OCC(C)C)c(CN(CCCl)CCCl)c1,inactive: -7.25%
5,COc1ccc(C(=O)NCC2(N3CCCCC3)CCCCC2)c(OC)c1OC,inactive: 0.805%
6,CCOC(=O)N1CCC(Nc2ccc(OC)cc2)CC1,inactive: 3.9%
7,O=C(OC1CN2CCC1CC2)C1c2ccccc2Oc2ccccc21 (stereo not given),inactive: -2.78%
8,N#CC1(Nc2ccccc2)CCN(Cc2ccccc2)CC1,inactive: -14.2%
9,O=C(NCC1(N2CCOCC2)CCCCC1)c1cc2ccccc2o1,inactive: 2.72%
10,COc1ccc(CN(CCCl)CCCl)cc1Cl,inactive: 4.77%
11,CN(C)c1cccc(C(=O)NCC2(N3CCCCC3)CCCCC2)c1,inactive: -2.25%
12,CCCCOc1ccccc1C(=O)NCC1(N2CCOCC2)CCCCC1,inactive: -3.64%
13,O=C(NCC1(N2CCOCC2)CCCCC1)c1ccccc1Br,inactive: 1.27%
14,COc1ccc2c(c1O)-c1c(O)c(OC)cc3c1[C@H](C2)[N+](C)(C)CC3.O=[N+]([O-])c1cc([N+](=O)[O-])c([O-])c([N+](=O)[O-])c1[O-],inactive: -5.54%
15,O=C(OC1CN2CCC1CC2)c1ccc([N+](=O)[O-])cc1 (stereo not given),inactive: -1.21%
16,CCOc1ccc(C(=O)NCC2(N3CCOCC3)CCCCC2)cc1,inactive: 2.89%
17,O=C(NCC1(N2CCCCC2)CCCCC1)c1cccc([N+](=O)[O-])c1,inactive: -3.48%
18,N#CC1(Nc2ccccc2)CCN(CCc2ccccc2)CC1,inactive: 2.15%
19,COc1ccc(NC2CCN(C(=O)OC(C)(C)C)CC2)cc1,inactive: 8.41%
20,CN1CCN(CCOC(=O)C(O)(c2ccccc2)c2ccccc2)CC1,inactive: 0.934%
21,O=C(NCC1(N2CCOCC2)CCCCC1)c1cc(=O)[nH]c2ccccc12,inactive: -6.57%
22,CCCOc1cccc(C(=O)NCC2(N3CCOCC3)CCCCC2)c1,inactive: -2.03%
23,O=[N+]([O-])c1cc([N+](=O)[O-])c(NCC2CCS(=O)(=O)C2)c([N+](=O)[O-])c1 (stereo not given),inactive: 1.98%

row,Compound,"activity, negative = inhibition"
1,CCOC(=O)C(CC)C1=NC(C)(C)Cc2ccccc21.O=[N+]([O-])c1cc([N+](=O)[O-])c(O)c([N+](=O)[O-])c1 (stereo not given),inactive: 4.47%
2,O=C(NCC1(N2CCOCC2)CCCCC1)c1ccc([N+](=O)[O-])cc1,inactive: -1.53%
3,O=C(NCC1(N2CCOCC2)CCCCC1)c1ccccc1[N+](=O)[O-],inactive: -5.86%
4,N#Cc1ccc(C(=O)NCC2(N3CCCCC3)CCCCC2)cc1,inactive: 6.37%
5,c1ccc(CN2CCC(Nc3ccccc3)CC2)cc1,inactive: 5.22%
6,O=C(NCC1(N2CCOCC2)CCCCC1)c1ccccc1,inactive: 3.24%
7,COc1ccc(C(=O)NCC2(N3CCOCC3)CCCCC2)cc1OC,inactive: 7.53%
8,O=C(OC1CN2CCC1CC2)C1c2ccccc2C=Cc2ccccc21 (stereo not given),inactive: 5.94%
9,O=C(O)c1cccc(Nc2c([N+](=O)[O-])cc([N+](=O)[O-])cc2[N+](=O)[O-])c1,inactive: 4.81%
10,N/C(=N\O)c1c(N)no[n+]1[O-],inactive: -0.243%
11,CC(C)(C)OC(=O)N1CCC(Nc2ccccc2)CC1,inactive: 2.78%
12,CCOc1ncccc1C(=O)NCC1(N2CCOCC2)CCCCC1,inactive: 3.59%
13,CCCOc1ccc(C)cc1CN(CCCl)CCCl,inactive: -5.46%
14,CCC(CO)(C(=O)OC1CN2CCC1CC2)c1ccccc1 (stereo not given),inactive: -2.82%
15,COc1cc(OC)cc(C(=O)NCC2(N3CCOCC3)CCCCC2)c1,inactive: 4.68%
16,COc1cc(C(=O)NCC2(N3CCOCC3)CCCCC2)cc(OC)c1OC,inactive: 8.26%
17,Fc1ccccc1NC1CCN(Cc2ccccc2)CC1,inactive: 7.13%
18,CN(C)C1(CNC(=O)c2ccc(C(C)(C)C)cc2)CCCCC1,inactive: -2.43%
19,CC(C)(C)c1ccc(C(=O)NCC2(N3CCOCC3)CCCCC2)cc1,inactive: 1.25%
20,CN(C)c1ccc(C(=O)NCC2(N3CCCCC3)CCCCC2)cc1,inactive: 16.9%
21,Cc1ccccc1C(=O)NCC1(N(C)C)CCCCC1,inactive: 3.97%
22,CCN1CCC(Nc2cccc(F)c2)CC1,inactive: -14.5%

# Reference: PubChem BioAssay AID1468 (National Center for Advancing Translational Sciences (NCATS), 2008)
